Experimental findings from publication PMC6149774, “Inhibition by Commercial Aminoglycosides of Human Connexin Hemichannels Expressed in Bacteria” (Molecules : A Journal of Synthetic Chemistry and Natural …, 2017) are described below.

The experiment concerns the target T1, human Cx46 hemichannels (Homo sapiens, UniProt Q9Y6H8).
T1 construct: Details of the human Cx26, Cx43, and Cx46 DNAs used to transform LB2003 cells have been published; expressed in transfected cells; host or cells: E. coli LB2003 (with pREP4), IPTG-induced from pQE60
As to the kind of experiment: Cx46-dependent growth complementation assay in LB2003 cells. The format is cell-based. The conditions noted are these: read-out: Aminoglycoside concentration needed to inhibit growth complementation by 50% (IC50), dependent on Cx46; LB2003-pREP4 cells, NLM + 16 mM KCl, 10 µM IPTG, OD600 after 18 h; mean ± SEM.

For kanamycin A, the IC50 is 112 ± 5 µM.
